CycPeptMPDB entries from one study

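Conditions beyond the assay type are not listed; see the original paper. The list need not hold all peptides of the study. Peptides that the database sets to -10, its floor, are left out.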

PAMPA measures passive passage through an artificial lipid membrane. Permeability is given as log10 of P in cm/s; higher (less negative) is more permeable.

The entry for CCCN1CC(=O)N(C)[C@@H](CC(C)C)C(=O)N[C@@H](CC(C)C)C(=O)N2CCC[C@H]2C(=O)N[C@@H](CC(C)C)C(=O)N[C@@H](Cc2ccccc2)C(=O)N2CCC[C@H]2C1=O lists PAMPA -5.72 (log10 cm/s). Listed for CC(C)C[C@@H]1C(=O)N[C@@H](Cc2ccccc2)C(=O)N2CCC[C@@H]2C(=O)N[C@@H](C)C(=O)N(C)[C@@H](CC(C)C)C(=O)N(Cc2ccccc2)CC(=O)N2CCC[C@@H]2C(=O)N1C: PAMPA -6.43 (log10 cm/s). The entry for CC(C)C[C@@H]1NC(=O)[C@H]2CCCN2C(=O)[C@H](CC(C)C)NC(=O)[C@@H](CC(C)C)NC(=O)C[C@H](Cc2ccccc2)NC(=O)[C@@H]2CCCN2C(=O)[C@H](Cc2ccccc2)NC1=O lists PAMPA -5.33 (log10 cm/s). The entry for CC(C)C[C@@H]1NC(=O)[C@@H](C)N(C)C(=O)[C@H](Cc2ccccc2)NC(=O)[C@H](CC(C)C)NC(=O)[C@H]2CCCN2C(=O)[C@H](CC(C)C)NC1=O lists PAMPA -7.20 (log10 cm/s). For CC(C)C[C@@H]1NC(=O)[C@H](CC(C)C)N(C)C(=O)[C@@H](C)NC(=O)[C@H](Cc2ccccc2)NC(=O)[C@@H](CC(C)C)NC(=O)[C@H]2CCCN2C1=O the data give PAMPA -5.19 (log10 cm/s). The entry for CC(C)C[C@H]1C(=O)N2CCC[C@H]2C(=O)N(C)[C@@H](CC(C)C)C(=O)N[C@@H](Cc2ccccc2)C(=O)N2CCC[C@@H]2C(=O)N(C)[C@@H](C)C(=O)N(Cc2ccccc2)CC(=O)N1C lists PAMPA -5.04 (log10 cm/s). The entry for CC(C)C[C@@H]1C(=O)N[C@@H](Cc2ccccc2)C(=O)N2CCC[C@@H]2C(=O)N(C)[C@H](C)C(=O)N(C)[C@@H](CC(C)C)C(=O)N(Cc2ccccc2)CC(=O)N2CCC[C@@H]2C(=O)N1C lists PAMPA -5.75 (log10 cm/s). The entry for CCCN1CC(=O)N(C)[C@@H](CC(C)C)C(=O)N[C@H](CC(C)C)C(=O)N2CCC[C@@H]2C(=O)N[C@H](CC(C)C)C(=O)N[C@@H](Cc2ccccc2)C1=O lists PAMPA -5.19 (log10 cm/s).

For CC(C)C[C@@H]1C(=O)N[C@@H](Cc2ccccc2)C(=O)N2CCC[C@@H]2C(=O)N[C@@H](Cc2ccccc2)CC(=O)N(C)[C@@H](CC(C)C)C(=O)N(Cc2ccccc2)CC(=O)N2CCC[C@H]2C(=O)N1C the data give PAMPA -5.43 (log10 cm/s). CCCN1CC(=O)N[C@@H](CC(C)C)C(=O)N[C@H](CC(C)C)C(=O)N2CCC[C@H]2C(=O)N(Cc2ccccc2)CC(=O)N[C@@H](Cc2ccccc2)C(=O)N2CCC[C@@H]2C1=O has PAMPA -5.69 (log10 cm/s). The entry for CC(C)C[C@@H]1C(=O)N[C@@H](Cc2ccccc2)C(=O)N2CCC[C@H]2C(=O)N[C@@H](Cc2ccccc2)CC(=O)N(C)[C@@H](CC(C)C)C(=O)N(C)[C@@H](CC(C)C)C(=O)N2CCC[C@H]2C(=O)N1C lists PAMPA -5.56 (log10 cm/s). The entry for CCCN1CC(=O)N(Cc2ccccc2)CC(=O)N[C@@H](CC(C)C)C(=O)N2CCC[C@@H]2C(=O)N(C)[C@@H](CC(C)C)C(=O)N[C@@H](Cc2ccccc2)C(=O)N2CCC[C@@H]2C1=O lists PAMPA -5.02 (log10 cm/s). Listed for CC(C)C[C@@H]1C(=O)N(C)[C@@H](CC(C)C)C(=O)N2CCC[C@H]2C(=O)N(C)[C@@H](CC(C)C)C(=O)N[C@@H](Cc2ccccc2)C(=O)N2CCC[C@H]2C(=O)N[C@@H](C)C(=O)N1C: PAMPA -5.51 (log10 cm/s). CC(C)C[C@@H]1C(=O)N[C@@H](Cc2ccccc2)C(=O)N2CCC[C@@H]2C(=O)N(C)[C@@H](C)C(=O)N[C@H](CC(C)C)C(=O)N(C)[C@H](CC(C)C)C(=O)N2CCC[C@@H]2C(=O)N1C has PAMPA -5.71 (log10 cm/s). For CC(C)C[C@@H]1NC(=O)[C@@H](C)N(C)C(=O)[C@@H]2CCCN2C(=O)[C@H](Cc2ccccc2)NC(=O)[C@@H](CC(C)C)NC(=O)[C@H]2CCCN2C(=O)[C@H](CC(C)C)N(C)C1=O the data give PAMPA -5.86 (log10 cm/s). The entry for CC(C)C[C@@H]1NC(=O)[C@@H]2CCCN2C(=O)[C@@H](CC(C)C)N(C)C(=O)[C@H](CC(C)C)NC(=O)[C@H](C)N(C)C(=O)[C@H]2CCCN2C(=O)[C@H](Cc2ccccc2)NC1=O lists PAMPA -5.32 (log10 cm/s).

Listed for CC(C)C[C@@H]1NC(=O)C[C@H](Cc2ccccc2)NC(=O)[C@@H]2CCCN2C(=O)[C@H](Cc2ccccc2)NC(=O)[C@H](CC(C)C)N(C)C(=O)[C@H]2CCCN2C(=O)[C@H](CC(C)C)NC1=O: PAMPA -5.33 (log10 cm/s). CC(C)C[C@@H]1NC(=O)[C@@H](C)N(C)C(=O)[C@@H]2CCCN2C(=O)[C@H](Cc2ccccc2)NC(=O)[C@@H](CC(C)C)N(C)C(=O)[C@@H]2CCCN2C(=O)CN(Cc2ccccc2)C1=O has PAMPA -5.61 (log10 cm/s). CC(C)C[C@H]1NC(=O)[C@H](C)N(C)C(=O)[C@H](Cc2ccccc2)NC(=O)[C@H](CC(C)C)N(C)C(=O)[C@H]2CCCN2C(=O)[C@@H](CC(C)C)NC1=O has PAMPA -6.18 (log10 cm/s). CC(C)C[C@@H]1C(=O)N[C@@H](Cc2ccccc2)C(=O)N2CCC[C@H]2C(=O)N(C)[C@H](C)C(=O)N[C@H](CC(C)C)C(=O)N[C@H](CC(C)C)C(=O)N2CCC[C@H]2C(=O)N1C is reported with PAMPA -5.67 (log10 cm/s).

Extract of 3 entries:

For CC(C)C[C@@H]1C(=O)N[C@@H](Cc2ccccc2)C(=O)N2CCC[C@@H]2C(=O)N[C@@H](C)C(=O)N(C)[C@@H](CC(C)C)C(=O)N(Cc2ccccc2)CC(=O)N2CCC[C@@H]2C(=O)N1C the data give PAMPA -6.43 (log10 cm/s).
For CC(C)C[C@@H]1NC(=O)[C@@H](C)N(C)C(=O)[C@@H]2CCCN2C(=O)[C@H](Cc2ccccc2)NC(=O)[C@@H](CC(C)C)N(C)C(=O)[C@@H]2CCCN2C(=O)CN(Cc2ccccc2)C1=O the data give PAMPA -5.61 (log10 cm/s).
For CC(C)C[C@@H]1NC(=O)[C@@H]2CCCN2C(=O)[C@@H](CC(C)C)N(C)C(=O)[C@H](CC(C)C)NC(=O)[C@H](C)N(C)C(=O)[C@H]2CCCN2C(=O)[C@H](Cc2ccccc2)NC1=O the data give PAMPA -5.32 (log10 cm/s).

Values of Townsend et al. 2020, doi:10.26434/chemrxiv.13335941.v1, as listed in CycPeptMPDB.